Results published in US20240002326A1, “COMPOUNDS AND USE THEREOF IN METHODS OF TREATMENT” (The University of Queensland, priority 2016, published 2024).

Chains of the proteins cited; added tags and fusions are not shown.
UniProt P35713, whole entry: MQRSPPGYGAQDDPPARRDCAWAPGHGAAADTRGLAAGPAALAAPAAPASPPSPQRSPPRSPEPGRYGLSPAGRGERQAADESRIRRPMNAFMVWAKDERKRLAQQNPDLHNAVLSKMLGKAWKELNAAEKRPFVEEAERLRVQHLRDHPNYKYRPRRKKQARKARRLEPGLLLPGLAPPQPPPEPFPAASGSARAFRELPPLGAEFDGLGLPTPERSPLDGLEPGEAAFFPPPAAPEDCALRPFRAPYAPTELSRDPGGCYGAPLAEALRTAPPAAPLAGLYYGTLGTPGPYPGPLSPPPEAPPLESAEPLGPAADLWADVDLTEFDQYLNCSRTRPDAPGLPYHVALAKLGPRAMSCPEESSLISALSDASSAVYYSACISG

What was measured:
[1] = Critical micelle concentration (CMC) assay; settings: threshold concentration of micelle formation in 200 mM NaCl or FP buffer
scrambled DNA = assay: Direct DNA-binding assay (SPR), scrambled DNA; settings: biotinylated double-strand DNA on streptavidin chip
Description: Compounds were tested at a 1% v/v DMSO in HBS-EP buffer (10 mM HEPES, 150 mM NaCl, 3 mM EDTA, 0.005% v/v polysorbate 20, pH 7.4). The same buffer supplemented with 1% v/v DMSO was used as a mobile phase. DNA minor groove binder DAPI (4′,6-diamidino-2-phenylindole), DNA intercalator and minor groove binder actinomycin D, and DNA intercalator ethidium bromide were used as positive controls. Biotinylated (one tag per probe) double strand DNA probes were prepared using a standard annealing routine (5 min at 100° C., room temperature overnight and stored at −20° C.) of single strand anti-parallel DNA Probes purchased from Geneworks and were immobilized on CM5-SA streptavidin chips as per manufacturer's recommendations. […] All sample and control cycles were performed in triplicate. DMSO calibration was performed as per manufacturer's recommendations. After each injection, an extra flow system wash was performed with 50% v/v DMSO to avoid carryover. Experiments were run on a Biacore T200 (GE Healthcare, USA), with one flow cell kept as a reference.
From a molecular viewpoint, an inhibitor of SOX18-DNA binding could act either by interacting directly with the DNA, or the protein, or at the interface between protein and DNA. […]

SOX18-RBPJ interaction = SOX18-RBPJ interaction (Homo sapiens (Human), UniProt P35713); assay: ALPHAScreen SOX18-RBPJ protein-protein interaction
SOX18-SOX18 homodimer = SOX18-SOX18 homodimer (Homo sapiens (Human), UniProt P35713); assay: ALPHAScreen SOX18-SOX18 homodimerization; settings: 5 uM
SOX7-SOX18 = SOX7-SOX18 (Homo sapiens (Human), UniProt P35713); assay: ALPHA-Screen SOX7-SOX18 interaction; format: binding; settings: 50 uM Sm4
Description: The genetically encoded tags used here are enhanced GFP (GFP), mCherry (Cherry) and cMyc (myc). The proteins were cloned into the following cell free expression Gateway destination vectors respectively: N-terminal GFP tagged (pCellFree_G03), N-terminal Cherry-cMyc (pCellFree_G07) and C-terminal Cherry-cMyc tagged (pCellFree_G08) (Gagoski et al. 2015). The Open Reading Frames (ORFs) corresponding to the human SOX7 (BC071947), SOX17, RBPJ (BC020780) and MEF2C (BC026341) were sourced from the Human ORFeome collection version 1.1 and 5.1 or the Human Orfeome collaboration OCAA collection (Open Biosystems) as previously described and cloned at the ARVEC facility, UQ Diamantina Institute. […]
The ALPHA-Screen Assay was performed as previously described (Sierecki et al. 2014), using the cMyc detection kit and Proxiplate-384 Plus plates (PerkinElmer). A serial dilution of each sample was measured. […] The ALPHA-Screen signal was obtained on an Envision Multilabel Plate Reader (PerkinElmer), using the manufacturer's recommended settings (excitation: 680/30 nm for 0.18 s, emission: 570/100 nm after 37 ms). […] The Binding Index was calculated as: BI=[(I−I_neg)/(I_ref−I_neg)]×100
For PPI disruption assay, protein pairs expressed in LTE were incubated for 1 h with 100 μM Sm4 or DMSO alone (0.7% DMSO final). 100 μM Sm4 or DMSO was also added to buffer B. PPI disruption was calculated as: (1−I_Sm4/I_DMSO)×100.

[2] = system: Sox7, Sox18 and Rbpj (Dll4 in3 enhancer); assay: Zebrafish tg(Dll4 in3:eGFP) SoxF/Notch reporter; settings: 2 μM Sm4 from 13 hpf
Sox9 = assay: Zebrafish tg(col2a1:yfp) Sox9 reporter; settings: continuous treatment between 2 and 6 days post fertilization
Calcium Channel L-Type = assay: Off-target radioligand binding, Calcium Channel L-Type; settings: Rat
GABAA, Muscimol = assay: Off-target radioligand binding, GABAA Muscimol; settings: Rat
Glutamate, NMDA = assay: Off-target radioligand binding, Glutamate NMDA; settings: Rat

O=C(O)c1c(O)cccc1CCc1ccc2ccccc2c1
CMC [1]: >1000 µM | binding to scrambled DNA (SPR) (scrambled DNA): do not bind | SOX18-RBPJ protein-protein binding inhibition at 5 μM (SOX18-RBPJ interaction; 5 μM): marginal | SOX18-RBPJ protein-protein binding inhibition at 50 μM (SOX18-RBPJ interaction; 50 μM, printed for almost complete inhibition (remaining interaction)): 11.9±5.6% | effect on SOX18-RBPJ interaction (PPI) (SOX18-RBPJ interaction; ALPHAScreen): inhibit both DNA and PPI | IC50 (SOX18-RBPJ interaction; read-out: SOX18-RBPJ interaction disruption IC50, ALPHAScreen): 42.3 µM | inhibitory activity in respect of SOX18-SOX18 homodimerization (SOX18-SOX18 homodimer): some inhibitory activity | SOX7-SOX18 interaction disruption (SOX7-SOX18): at least partially disrupted | Dll4 in3 enhancer activity, Sm4 alone [2]: mild repressive effect | increase of repressive effect, rbpj MO at suboptimal dose combined with Sm4 [2]: 11.5% | transcriptional activity of Sox9 / chondrogenesis in vivo (Sox9): did not perturb | Inhibition at 10 μM (%) (Calcium Channel L-Type): −8% | Inhibition at 10 μM (%) (GABAA, Muscimol): 6% | Inhibition at 10 μM (%) (Glutamate, NMDA): −5%
